The values below come from patent publication EP0457318B1, “Alpha-Oxopyrrolo[2,3-b]indole acetic acids, esters, amides and related analogs, a process for their preparation and their use as medicaments” (HOECHST-ROUSSEL PHARMACEUTICALS INCORPORATED, priority 1990, dated 1991).

By UniProt entry, the sequences of proteins in these tests, tags left out. Where a name states a change or a piece, a line headed by the entry shows the natural chain unless it says otherwise.
UniProt P37136: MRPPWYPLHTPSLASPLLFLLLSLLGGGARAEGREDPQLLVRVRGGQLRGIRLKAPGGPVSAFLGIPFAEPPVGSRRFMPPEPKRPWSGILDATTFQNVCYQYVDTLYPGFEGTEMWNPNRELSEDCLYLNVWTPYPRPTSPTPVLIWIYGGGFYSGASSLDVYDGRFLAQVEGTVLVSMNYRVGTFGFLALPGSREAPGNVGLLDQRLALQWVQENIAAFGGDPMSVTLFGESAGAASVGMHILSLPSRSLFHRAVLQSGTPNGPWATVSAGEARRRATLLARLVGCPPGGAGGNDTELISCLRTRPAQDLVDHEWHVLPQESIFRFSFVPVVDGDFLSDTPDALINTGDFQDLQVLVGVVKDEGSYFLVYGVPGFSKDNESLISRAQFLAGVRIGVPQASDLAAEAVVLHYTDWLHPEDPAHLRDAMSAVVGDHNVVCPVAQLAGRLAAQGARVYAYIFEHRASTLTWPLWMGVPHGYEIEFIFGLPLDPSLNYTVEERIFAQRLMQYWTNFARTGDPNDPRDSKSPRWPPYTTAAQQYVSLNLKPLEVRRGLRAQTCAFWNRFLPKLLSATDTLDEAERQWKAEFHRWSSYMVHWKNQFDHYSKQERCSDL

The target in the assay is Brain AChE (Rattus norvegicus, UniProt P37136). Nature of the assay: In vitro inhibition of acetylcholinesterase activity in rat striatum (modified Ellman method). Type of assay: biochemical. As to conditions: read-out: Inhibitory Concentration (IC50) Brain AChE; rat striatum homogenate, preincubated 10 minutes at 37°C, 5 mM acetylthiocholine, pH 7.2. From the text:
Cholinesterases are found throughout the body, both in the brain and in serum. However, only brain acetylcholinesterase (AChE) distribution is correlated with central cholinergic innervation. […] We have determined in vitro inhibition of acetylcholinesterase activity in rat striatum according to the method described below.
In Vitro Inhibition of Acetylcholinesterase Activity in Rat Striatum
The method described below was used in this invention for assaying anticholinesterase activity. This is a modification of the method of Ellman et al., Biochem. Pharmacol. 7, 88 (1961).
• 1. 0.05 M Phosphate buffer, pH 7.2 • (a) 6.85 g NaH2PO4·H2O/100 ml distilled H2O • (b) 13.40 g Na2HPO4·7H2O/100 ml distilled H2O • (c) add (a) to (b) until pH reaches 7.2 • (d) Dilute 1:10 • 2. Substrate in buffer • (a) 198 mg acetylthiocholine chloride (10 mM) • (b) q.s. to 100 ml with 0.05 M NaPO4, pH 7.2 (reagent 1) • 3. […] If active, IC50 values are determined from the inhibitory activity of subsequent concentrations. […]
Enzyme activity is measured with the Beckman DU-50 spectrophotometer. […]
Blank values are determined for each run to control non enzymatic hydrolysis of substrate and these values are automatically substracted by the kindata program available on kinetics soft-pac module. This program also calculates the rate of absorbance change for each cuvette. […]
IC50 values are calculated from log-probit analysis.
In general terms: In Ellman's method for cholinesterases, released thiocholine reacts with DTNB.

Physostigmine: the IC50 was 6 nM.
